In test [1] the target is nucleosome (fluorescently labelled histone octamer) reconstituted on lambda DNA (UniProt P04911). As to the kind of experiment: two-colour single-molecule colocalisation on DNA (optical tweezers with confocal microscopy); JFX650-labelled remodeler on sparse lambda nucleosome arrays (Cy3- or JFX554-labelled H2A) held at ~5 pN; 1 mM ATP; dwell time of the non-diffusive state (includes translocation) of remodelers within ~500 bp of a nucleosome, double exponential fit.

Test [2] shares this target.
Test [3] shares this target. Briefly: two-colour single-molecule colocalisation on DNA (optical tweezers with confocal microscopy); JFX650-labelled remodeler on sparse lambda nucleosome arrays (Cy3- or JFX554-labelled H2A) held at ~5 pN; 1 mM ATPγS; dwell time of the non-diffusive state of remodelers within ~500 bp of a nucleosome, double exponential fit.
Test [4] has the same target. This is another data set of the same source.
The target is the same in test [5]. Briefly: two-colour single-molecule colocalisation on DNA (optical tweezers with confocal microscopy); JFX650-labelled remodeler on sparse lambda nucleosome arrays (Cy3- or JFX554-labelled H2A) held at ~5 pN; no ATP; dwell time of the non-diffusive state of remodelers within ~500 bp of a nucleosome, double exponential fit.

On to “ISW2 chromatin remodeling complex with Isw2-3xFlag-HaloTag (from UniProt Q08773 1-1120)”, for which the half-life of the non-diffusive state upon nucleosome encounter worked out at 12 s in test [1], 28 s in test [3] and 28 s in test [5]. Moreover, in test [2], the average nucleosome translocation speed, 1 mM ATP amounted to 29 bp/s. This substance registered a median duration of uninterrupted, speed-constant nucleosome translocation, 1 mM ATP in test [2] of 22 s. The half-life of nucleosome translocation events, 1 mM ATP in test [4] was 17 s.
For the substance “RSC chromatin remodeling complex with Sth1-3xFlag-HaloTag (from UniProt P32597 1-1359)”, the half-life of the non-diffusive state upon nucleosome encounter amounted to 23 s in test [1], 28 s in test [3] and 18 s in test [5]. The average nucleosome translocation speed, 1 mM ATP in test [2] stood at 29 bp/s. Moreover, the median duration of uninterrupted, speed-constant nucleosome translocation, 1 mM ATP in test [2] turned out to be 33 s. In test [4], the half-life of nucleosome translocation events, 1 mM ATP came out at 20 s.

The values are drawn from paper doi:10.1101/2023.06.13.544671.
